Source: PMC6524416, “Nanofibrous Scaffolds Support a 3D in vitro Permeability Model of the Human Intestinal Epithelium” (Frontiers in Pharmacology, 2019)

Tests used:
[1] = system: porcine intestinal segments
[2] = system: Caco-2 cultures on nanofibrous scaffolds; settings: Caco-2, pH 7.4
[3] = system: Caco-2 monolayers on Transwell®

## FITC-dextran 4000 [FD4]
[1]
  Papp (A to B), range over porcine segments: 2.5–4.8 × 10^-6 cm s^-1
  Papp (B to A), range over porcine segments: 1.85–5.00 × 10^-6 cm s^-1
  recovery (range): 50–70%
[2]
  Papp (A to B): 4.51 (±0.67) × 10^-6 cm s^-1
  Papp (B to A): 0.75 (±0.74) × 10^-6 cm s^-1
[3]; Caco-2
  total molecular flux: less than 0.1%
[3]; Caco-2, pH 7.4
  Papp (A to B): 0.18 (±0.10) × 10^-6 cm s^-1
  Papp (B to A): 0.51 (±0.25) × 10^-6 cm s^-1
